Measured values reported in PubChem BioAssay (EPA / NIEHS).
Only a part is listed here, and it is no random draw. Results filed as inconclusive are left out. Calls of active or inactive are those of the source. The calls were made as follows: active = hit-call score of the fitted dose curve at least 0.9, where 1 is the maximum; inconclusive = response in the unintended direction; inactive = score below 0.9.

Protein sequences, listed by entry. Tags and fused reporters are not part of them. Lines headed by an entry give the natural chain unless they say otherwise; changes in a name come on top.
UniProt Q92753: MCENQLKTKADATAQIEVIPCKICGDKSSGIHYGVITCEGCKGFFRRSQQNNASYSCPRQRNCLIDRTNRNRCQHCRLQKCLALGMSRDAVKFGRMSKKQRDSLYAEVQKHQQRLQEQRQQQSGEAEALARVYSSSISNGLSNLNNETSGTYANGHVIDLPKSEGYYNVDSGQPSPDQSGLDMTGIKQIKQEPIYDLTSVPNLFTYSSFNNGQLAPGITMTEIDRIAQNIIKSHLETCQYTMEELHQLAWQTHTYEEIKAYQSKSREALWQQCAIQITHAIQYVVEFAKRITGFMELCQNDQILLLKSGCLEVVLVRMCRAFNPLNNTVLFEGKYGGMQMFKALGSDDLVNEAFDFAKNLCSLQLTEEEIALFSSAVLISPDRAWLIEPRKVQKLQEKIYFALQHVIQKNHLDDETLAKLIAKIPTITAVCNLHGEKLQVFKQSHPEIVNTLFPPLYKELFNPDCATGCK

These compounds were tested against human RAR-related Orphan Receptor beta (RORb), RORB (gene 6096) (UniProt Q92753) (assay: ATG_RORb_TRANS: Attagene TRANS-FACTORIAL HepG2 Assay for human RAR-related Orphan Receptor beta (RORb) (AID 2283010)).
Protocol: ATG_TRANS is a cell-based, multiplexed-readout assay that uses HepG2, a human liver cell line, with measurements taken at 24 hours after chemical dosing in a 24-well plate.ATG_RORb_TRANS is one of 30 assay component(s) measured or calculated from the ATG_TRANS assay. It is designed to make measurements of mRNA induction, a form of inducible reporter, as detected with fluorescence intensity signals by Reverse transcription polymerase chain reaction (RT-PCR) and Capillary electrophoresis technology.Data from the assay component ATG_RORb_TRANS was analyzed into 1 assay endpoint. This assay endpoint, ATG_RORb_TRANS, was analyzed in the positive analysis fitting direction relative to DMSO as the negative control and baseline of activity. Using a type of inducible reporter, measures of mRNA for gain-of-signal activity can be used to understand the reporter gene at the transcription factor-level as they relate to the gene RORB. Furthermore, this assay endpoint can be referred to as a primary readout, because this assay has produced multiple assay endpoints where this one serves a reporter gene function. To generalize the intended target to other relatable targets, this assay endpoint is annotated to the nuclear receptor intended target family, where the subfamily is orphan.
Human liver HepG2 cells are transiently transfected with multiple reporter transcription units (MRTUs) in 6-well plates using FuGene 6 reagent (Roche; 3 ml FuGene/1 mg DNA). The MRTU constructs are regulated by a cis-regulating element (promoter). […] A major difference between the CIS and TRANS system is that in CIS activities of endogenous TFs are measured, whereas the TRANS assay evaluates changes in activities of exogenous, chimeric NR-Gal4 proteins. […] At the end of 24 hour incubation, total RNA was isolated using TriZol reagent (Invitrogen). The isolated RNA is then reverse-transcribed using oligo(dT) primer and Mo-MLV reverse transcriptase (Invitrogen) with DNAse I (Ambion) treatment for 30 min. The one-tenth of the produced cDNA was amplified by PCR using Taq DNA polymerase (Invitrogen) and two reporter sequence-specific primers. The PCR products were fluorescently labeled by primer extension with 6-arboxyfluorescein (6-FAM) 5'-labeled reporter sequence-specific primer (2 min at 95 C, 20 s at 68 C and 10 min at 72 C) and these products were digested with 5U of HpaI (New England Biolabs) for 2h at 37 C. The fragments were purified using Qiaquick PCR columns (Qiagen), analyzed on an ABI 3130xL genetic analyzer (Applied Biosystems) with peak positions identified by using a set of X-rhodamine (ROX)-labeled MapMarker1000 molecular weight standards (BioVentures). The raw capillary electrophoresis data was processed using Attagraph software (Attagene).
For `O=C1C2CC=CCC2C(=O)N1SC(Cl)(Cl)C(Cl)Cl` (stereo not given), the outcome was “inactive”.
With `CCCCC(CC)CO[P+](=O)OCC(CC)CCCC` (stereo not given) the outcome was “inactive”.
In the case of `CC(C)OP(=S)(OC(C)C)SCCNS(=O)(=O)c1ccccc1`, the outcome is reported as “inactive”.
With `O=C(Cl)Oc1ccccc1` the outcome was “inactive”.
For `O=[P+](Oc1ccccc1)Oc1ccccc1`, the outcome was “inactive”.
In the case of `Cc1cc([N+](=O)[O-])cc([N+](=O)[O-])c1O`, the outcome is reported as “inactive”.
For `O=[N+]([O-])c1ccc([N+](=O)[O-])cc1`, the outcome was “inactive”.
For `N#CSc1ccc([N+](=O)[O-])cc1[N+](=O)[O-]`, the outcome was “inactive”.
In the case of `O=[p+]1oc2ccccc2c2ccccc21` (stereo not given), the outcome is reported as “inactive”.
In the case of `CCCCOP(OCCCC)OCCCC`, the outcome is reported as “inactive”.
